Assay results as given in patent publication EP4772523A1, “D-PEPTIDE AND USE THEREOF” (HIROSAKI UNIVERSITY, priority 2023, dated 2025).

Tests used:
[1] = tested on: PC3-PSMA- and PC3-PSMA+, MBT2, or SAS; settings: 10 mg/kg intraperitoneal, tumor size 15 mm
[2] = tested on: mouse bladder cancer cells MBT2
[3] = tested on: PC3-PSMA-/ANXA1- and PC3-PSMA+/ANXA1+; assay: In-vivo imaging (IVIS) of tumor accumulation of Val-Cit linked Cy7.5 peptides in prostate cancer-bearing nude mice
Description: Further, variation in accumulation depending on the tumor size was examined. […] Tumor accumulation was examined in the same manner as above (FIG. 22).

[4] = tested on: human head and neck cancer cells SAS and human osteosarcoma cancer cells MG-63; assay: In-vivo imaging (IVIS) of tumor accumulation in head and neck cancer- and osteosarcoma-bearing mice
[5] = tested on: PSMA-negative/ANXA1-negative human prostate cancer cells PC3 and PSMA-positive/ANXA1-positive PC3 cells; assay: Anticancer treatment in back subcutaneous PC3 tumor model; type: in vivo, nude mice; settings: post-treatment
Protocol: 1 × 10^6 PSMA-negative/ANXA1-negative human prostate cancer cells PC3 were inoculated into the left back of nude mice, and 1 × 10^6 PSMA-positive/ANXA1-positive PC3 cells were inoculated into the right back of the nude mice. […] As control, 0.919 mg/kg (22.975 ng vcMMAE/25 g mouse) of vcMMAE alone (molecular weight: 1316.6) was administered. The tumor size was monitored by measuring the average radiance (photon/sec/cm^2/sr) of the luciferase-expressing tumor after injection of luciferin (150 mg/mouse) using an IVIS system. After three courses of administration, the tumor size, body weight, pathological test, blood biochemical test, and blood cell count test values were evaluated (FIG. 41).

[6] = 10 mg/kg intraperitoneal, MBT2 tumor 5 mm

RRQRRAP(R7)-EMCS-Cy7.5 [L-R7 peptide-Cy7.5, reference compound]
tumor-specific accumulation [1]: did not exhibit tumor-specific accumulation

c(EMCS-Cy7.5)-hpnevrs [Cy7.5-dhp7]
start of increased fluorescence intensity in the tumor tissue area after administration [2, 6]: 30 min
strong tumor-specific accumulation maintained until [2, 6]: 96 h
time at which tumor accumulation reached the plateau [2, 6]: 24 h
ex vivo accumulation in main organs ([2]; 48 and 96 hours after administration): strongly accumulated in the tumor tissue and the kidney, also accumulated in the intestine, but did not accumulate in other organs
time of maximum tumor accumulation ([1]; each cancer-bearing nude mouse): 24 h

C(MI-Cy7.5)-vc-HPNEVRS [Cy7.5-vc-LHP7, reference compound]
ex vivo accumulation in main organs ([3]; 96 hours after administration, prostate cancer-bearing mice): did not exhibit tumor-specific accumulation
accumulation in the tumor ([3]; tumor size 7 mm, dose corresponding to Cy7.5 10 mg/kg, intraperitoneal): no accumulation in the tumor
accumulation in the tumor ([3]; tumor size 15 mm, 28.7 mg/kg intraperitoneal): no Cy7.5-vc-LHP7 accumulated in the tumor
ex vivo accumulation in main organs ([4]; 96 hours after administration, head and neck cancer and osteosarcoma): did not exhibit tumor-specific accumulation
accumulation in the tumor ([4]; SAS and MG-63, tumor size 7 mm): no Cy7.5-vc-LHP7 accumulated in the tumor

c(vcMMAE)-hpnevrs [vcMMAE-dhp7]
blood biochemical values compared with vcMMAE alone administration group [5]: did not significantly differ
